## Binding of CDR-mutated scFvs to a peptide of the spike HR2 region

Source: Engelhart et al. 2022 (doi:10.1038/s41597-022-01779-4), MIT Lincoln Laboratory and A-Alpha Bio; data file from the FLAb repository.

Antigen: PDVDLGDISGINAS, a 14-residue peptide of the SARS-CoV-2 spike HR2 region.

Parent scFv Ab-95: VH joined to VL by a 15-residue (Gly4Ser)3 linker. Changes lie in the light chain CDRs alone.
VH: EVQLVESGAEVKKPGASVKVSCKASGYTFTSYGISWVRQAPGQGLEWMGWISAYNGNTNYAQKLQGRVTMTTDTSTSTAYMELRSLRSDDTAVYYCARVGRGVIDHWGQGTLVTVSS
VL: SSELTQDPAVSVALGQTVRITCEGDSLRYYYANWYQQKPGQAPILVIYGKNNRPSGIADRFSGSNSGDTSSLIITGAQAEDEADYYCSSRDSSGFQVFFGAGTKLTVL

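The parent was found by panning a naive human phage display library on the peptide. Variants in AAYL52 differ from the parent at up to three CDR positions; double and triple changes were sampled at random. AlphaSeq pools MATa yeast showing the antibodies with MATalpha yeast showing the peptide. Pairs that bind mate more often; barcode pairs of the diploids are counted by sequencing. A regression on co-assayed BCL2-family reference pairs converts the normalised counts of each replicate to an apparent Kd. The assay was run in three technical replicates.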

Changes read parent residue, position, new residue, counted from the first residue of the VL shown. The read-out is the apparent dissociation constant on a log10 scale (nM): the lower, the stronger. A pair that was not seen in that replicate is written "n.d."; this usually means weak binding, but a binder can also be missed. Empty control strains, which show no peptide, gave a signal in 28% of pairings with library AAYL52; the median was 3.91 and 95% of these signals were weaker than 2.90. No background was subtracted. The control count says in how many pairings with the empty strains this scFv gave a signal, with their mean in brackets.

changes,"log10 Kd, replicates",control signals
D25S/A32P/F98L,2.11 1.75 2.01,4 of 9 (3.61)
G24H/L27I/N52W,3.46 4.99 3.51,6 of 9 (3.44)
L27S/N33G/F98I,n.d. n.d. n.d.,3 of 9 (3.82)
N51H/S88F/G94D,4.05 3.33 3.58,0 of 9
G49N/N51P/F95V,n.d. 4.71 3.95,3 of 9 (3.76)
R28G/P54A/S88Q,2.94 3.12 2.32,3 of 9 (4.31)
E23N/Y30I/N52A,2.55 3.66 2.66,1 of 9 (3.45)
E23Q/Y31A/G49A,1.52 1.44 0.73,1 of 9 (4.22)
Y29D/N33G,3.30 4.52 n.d.,5 of 9 (3.58)
A32G/K50I/R90I,3.42 3.08 n.d.,3 of 9 (3.65)
D25S/Y30P/G49P,n.d. n.d. 4.06,2 of 9 (3.84)
G49I/D91R/S93Y,n.d. n.d. 3.55,2 of 9 (3.82)
Y29I/K50M/S88A,2.52 2.41 3.05,5 of 9 (3.60)
N51D/R53A/F95M,3.52 3.29 2.85,3 of 9 (3.67)
S26D/N33C/F98R,2.56 3.23 2.01,3 of 9 (3.82)
E23G/S26E/F95W,4.05 n.d. n.d.,3 of 9 (4.53)
L27P/R28L/S55I,2.76 2.41 3.76,5 of 9 (3.46)
E23A/S26H/L27M,3.44 n.d. 3.11,2 of 9 (3.82)
L27R/Y31L/K50C,n.d. 3.83 n.d.,3 of 9 (3.49)
E23L/Y31R/S92M,2.80 2.84 2.25,3 of 9 (3.29)
D25K/L27D/R90W,n.d. n.d. n.d.,0 of 9
G49Y/S55K/S92H,4.48 4.61 4.25,2 of 9 (4.29)
S55Y/Q96T,2.55 2.71 2.40,2 of 9 (4.65)
L27M/Y29Q/G49I,3.61 4.31 n.d.,2 of 9 (4.10)
R28Q/D91G/V97H,1.92 1.55 1.67,0 of 9
R28V/K50M/R53A,3.87 3.31 4.35,3 of 9 (4.15)
A32H/S89R/Q96F,4.87 n.d. 4.56,2 of 9 (3.34)
D91M/S93V/G94P,2.27 2.15 2.22,1 of 9 (3.56)
S88Y/G94E,2.97 3.08 2.88,4 of 9 (4.34)
P54W/S88L/D91G,n.d. n.d. n.d.,1 of 9 (4.41)
K50M/P54N/S89V,3.14 4.71 4.03,1 of 9 (3.70)
Y29M/R53E/D91E,3.50 n.d. 3.71,1 of 9 (2.29)
D25C/F95W/V97Y,n.d. n.d. n.d.,3 of 9 (4.51)
G24L/D25C/N51T,n.d. n.d. n.d.,3 of 9 (4.04)